The values that follow are results of earlier work, collected in patent US10676780B2, “Stabilisation and isolation of extracellular nucleic acids” (QIAGEN GmbH, priority 2011, dated 2020).

Amino acid sequences for entries named in this document (tags omitted). Residues count along the entry.
UniProt P29466, 120-404 limits assumed: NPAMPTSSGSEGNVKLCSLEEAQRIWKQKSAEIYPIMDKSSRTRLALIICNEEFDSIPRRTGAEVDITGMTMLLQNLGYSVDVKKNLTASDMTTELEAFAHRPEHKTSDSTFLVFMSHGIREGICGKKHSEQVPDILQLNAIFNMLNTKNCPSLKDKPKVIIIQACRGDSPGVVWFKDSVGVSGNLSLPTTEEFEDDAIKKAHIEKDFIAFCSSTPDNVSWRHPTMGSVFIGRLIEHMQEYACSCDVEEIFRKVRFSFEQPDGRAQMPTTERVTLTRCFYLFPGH

The target of this data set is caspase-1 (Homo sapiens, UniProt P29466). To be noted: cited from earlier work.

Turning to Ac-IETD-aldehyde, the inhibitory constant (Ki) was below 6 nM.
